Measurements as given in PubChem BioAssay (NCI).
Some of these compounds have results that are not shown, active ones among them.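 Where inhibition never reached the appropriate level, the endpoint shown equals the highest concentration tested. Otherwise, values were interpolated linearly from a five-concentration, 48-hour dose response in 96-well plates. GI50 = concentration required for 50% inhibition of growth. TGI denotes the concentration required for complete inhibition of growth.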

Tests used:
Assay in all cases: NCI anticancer screen, dose series, 48 h
[1] = tested on: SF-295 CNS
[2] = tested on: MDA-N
[3] = tested on: DU-145 prostate
[4] = tested on: NCI-H23 lung
[5] = tested on: OVCAR-3 ovarian
[6] = tested on: HCT-116 colon
[7] = tested on: UACC-62 melanoma
[8] = tested on: MDA-MB-435
[9] = tested on: RXF 393 renal
[10] = tested on: UACC-257 melanoma
[11] = tested on: MCF7 breast
[12] = tested on: RPMI-8226 leukemia
[13] = tested on: SK-MEL-5 melanoma
[14] = tested on: CAKI-1 renal
[15] = tested on: MOLT-4 leukemia
[16] = tested on: IGROV1 ovarian
[17] = tested on: HS 578T breast
[18] = tested on: SK-MEL-28 melanoma
[19] = tested on: MALME-3M melanoma
[20] = tested on: 786-0 renal
[21] = tested on: HOP-62 NSCLC
[22] = tested on: ACHN renal
[23] = tested on: M14 melanoma
[24] = tested on: NCI-H522 lung
[25] = tested on: SN12C renal
[26] = tested on: U251 CNS
[27] = tested on: UO-31 renal
[28] = tested on: NCI-H322M lung
[29] = tested on: SF-268 CNS
[30] = tested on: TK-10 renal
[31] = tested on: LOX IMVI melanoma
[32] = tested on: NCI/ADR-RES ovarian
[33] = tested on: SNB-19 CNS
[34] = tested on: PC-3 prostate
[35] = tested on: HOP-92 NSCLC
[36] = tested on: BT-549 breast
[37] = tested on: HCT-15 colon
[38] = tested on: K-562 leukemia
[39] = tested on: HT29 colon
[40] = tested on: A498 renal
[41] = tested on: T-47D breast
[42] = tested on: MDA-MB-231 breast
[43] = tested on: SK-OV-3 ovarian
[44] = tested on: OVCAR-5 ovarian
[45] = tested on: NCI-H226 lung
[46] = tested on: HL-60(TB) leukemia
[47] = tested on: EKVX NSCLC
[48] = tested on: SR leukemia
[49] = tested on: OVCAR-4 ovarian
[50] = tested on: SNB-75 CNS
[51] = tested on: COLO 205 colon
[52] = tested on: A549 NSCLC
[53] = tested on: CCRF-CEM leukemia
[54] = tested on: SF-539 CNS
[55] = tested on: SK-MEL-2 melanoma
[56] = tested on: OVCAR-8 ovarian

Compound: CC(C)C#CC(O)(C(=O)OC1C2CCN(CC2)C1C)C1CCCCC1 (configuration not stated)
- GI50 [1]: > 100 µM
- TGI [1]: > 100 µM
- GI50 [2]: 95.9 µM
- TGI [2]: > 100 µM
- GI50 [3]: > 100 µM
- TGI [3]: > 100 µM
- GI50 [4]: > 100 µM
- TGI [4]: > 100 µM
- GI50 [5]: 97.8 µM
- TGI [5]: > 100 µM
- GI50 [6]: 89.3 µM
- TGI [6]: > 100 µM
- GI50 [7]: > 100 µM
- TGI [7]: > 100 µM
- GI50 [8]: > 100 µM
- TGI [8]: > 100 µM
- GI50 [9]: 21.4 µM
- TGI [9]: > 100 µM
- GI50 [10]: 15.8 µM
- TGI [10]: 34.2 µM
- GI50 [11]: 81.8 µM
- TGI [11]: > 100 µM
- GI50 [12]: 47.6 µM
- TGI [12]: > 100 µM
- GI50 [13]: 18.2 µM
- TGI [13]: 32.6 µM
- GI50 [14]: > 100 µM
- TGI [14]: > 100 µM
- GI50 [15]: 41.3 µM
- TGI [15]: > 100 µM
- GI50 [16]: 73.9 µM
- TGI [16]: > 100 µM
- GI50 [17]: 38.9 µM
- TGI [17]: > 100 µM
- GI50 [18]: 35.2 µM
- TGI [18]: > 100 µM
- GI50 [19]: 28.4 µM
- TGI [19]: 85.5 µM
- GI50 [20]: 75.1 µM
- TGI [20]: > 100 µM
- GI50 [21]: > 100 µM
- TGI [21]: > 100 µM
- GI50 [22]: > 100 µM
- TGI [22]: > 100 µM
- GI50 [23]: 15.9 µM
- TGI [23]: 30 µM
- GI50 [24]: 76.5 µM
- TGI [24]: > 100 µM
- GI50 [25]: > 100 µM
- TGI [25]: > 100 µM
- GI50 [26]: > 100 µM
- TGI [26]: > 100 µM
- GI50 [27]: 54.2 µM
- TGI [27]: > 100 µM
- GI50 [28]: > 100 µM
- TGI [28]: > 100 µM
- GI50 [29]: 81.4 µM
- TGI [29]: > 100 µM
- GI50 [30]: 62.6 µM
- TGI [30]: > 100 µM
- GI50 [31]: 34.4 µM
- TGI [31]: > 100 µM
- GI50 [32]: > 100 µM
- TGI [32]: > 100 µM
- GI50 [33]: > 100 µM
- TGI [33]: > 100 µM
- GI50 [34]: 48 µM
- TGI [34]: > 100 µM
- GI50 [35]: 29.9 µM
- TGI [35]: > 100 µM
- GI50 [36]: > 100 µM
- TGI [36]: > 100 µM
- GI50 [37]: > 100 µM
- TGI [37]: > 100 µM
- GI50 [38]: 24.8 µM
- TGI [38]: 57.6 µM
- GI50 [39]: 25.9 µM
- TGI [39]: 97.1 µM
- GI50 [40]: > 100 µM
- TGI [40]: > 100 µM
- GI50 [41]: > 100 µM
- TGI [41]: > 100 µM
- GI50 [42]: 44.9 µM
- TGI [42]: > 100 µM
- GI50 [43]: > 100 µM
- TGI [43]: > 100 µM
- GI50 [44]: 65.4 µM
- TGI [44]: > 100 µM
- GI50 [45]: 63.6 µM
- TGI [45]: > 100 µM
- GI50 [46]: 37.6 µM
- TGI [46]: > 100 µM
- GI50 [47]: > 100 µM
- TGI [47]: > 100 µM
- GI50 [48]: 34.8 µM
- TGI [48]: 62.9 µM
- GI50 [49]: 51.4 µM
- TGI [49]: > 100 µM
- GI50 [50]: 37 µM
- TGI [50]: > 100 µM
- GI50 [51]: 32.6 µM
- TGI [51]: > 100 µM
- GI50 [52]: > 100 µM
- TGI [52]: > 100 µM
- GI50 [53]: 48.9 µM
- TGI [53]: > 100 µM
- GI50 [54]: 79.5 µM
- TGI [54]: > 100 µM
- GI50 [55]: > 100 µM
- TGI [55]: > 100 µM
- GI50 [56]: > 100 µM
- TGI [56]: > 100 µM
